For the data set the following is noted: healthy subjects.

On to `O=S(=O)([O-])[O-].[Mg+2]` [MgSO4, magnesium sulfate], for which the “systemic exposure relative to total dose” value is recorded as “proportionate to total dose”.

For the origin of these results see patent publication US20150320795A1, “COMPOSITIONS AND METHODS COMPRISING POLYETHYLENE GLYCOL AND MAGNESIUM FOR TREATMENT OF NEURONAL INJURY” (priority 2012, published 2015).
